# Assay results reported in PubChem BioAssay AID540303 (National Center for Advancing Translational Sciences (NCATS), 2011).
# Shown are results outside the selection of hits, which stands elsewhere. Results filed as inconclusive are left out. The source made the active and inactive calls. Calls come from the whole dose curve; as a rule, active = well fitted inhibition curve with a large enough effect; inconclusive = small, poorly fitted or top-dose-only effect; inactive = no such curve, though single readings can be large or run the other way; tested in mouse RAW 264.7 cells.
# Assay: qHTS for Inhibitors of Cell Surface uPA Generation; note: nearly all actives have a fitted effect of over 55% in size
# Conditions: cell surface uPA generation assay; at 38.3 µM (top of the series)
# From the text: The overall objective of this project is to perform a quantitative high throughput screen (qHTS) to identify novel compounds that inhibit the generation of cell surface urokinase activity. The urokinase plasminogen activator (uPA) is one of the two primary endogenous systems that mediate plasminogen activation into plasmin. Members of this system, including uPA and its receptor (uPAR), are overexpressed in several malignant tumors. This system plays a major role in adhesion, migration, invasion and metastasis of cancer cells. Small molecule inhibitors of the uPA system will serve as probes to understand the molecular mechanisms of the uPA cascade and better understanding the microenvironmental circumstances that facilitate the activation of plasminogen by uPA, and finally may provide novel candidate agents for anticancer drug therapy.
# […] Upon inhibition of the uPA activation cascade, the subsequent cell surface uPA activity-dependent translocation of LF into the cytoplasm is inhibited. […]
# Cultured RAW 264.7 were dispensed into 1536-well clear bottom, white walled tissue culture plates at a density of 4000 cells/well and were incubated overnight (12-16 h) at 37 C in a 5% CO2 incubator. […] Luminescence was detected using a Perkin Elmer ViewLuxtrade mark plate reader. […]
# 7.Reading plates by ViewLux with an exposure length of 5 seconds.
# % is set by controls: 0 for no effect and ±100 for the full control effect.
row,SMILES,"activity change, negative = inhibition"
1,COc1ccc(CC(C)NCC(O)c2ccc(O)c(NC=O)c2)cc1 (stereo unspecified),inactive: -12.9%
